What was measured:
[1] = test system: PU.1 dependent gene expression; assay: RT-qPCR of mRNA levels in BV2 PU.1-Luciferase cells (validation round 3); type: cell-based, mouse; details: 2-day treatment
[2] = biological target: PU.1 (Mus musculus, UniProt P17433); assay: Luciferase assay (luminescence) in BV2 PU.1-Luciferase reporter cells; type: cell-based; details: luminescence reduction in BV2 PU.1-Luciferase cells, concentration-response, Hill's equation

SMILES	mRNA levels Apoe [1]	mRNA levels IL1β [1]	mRNA levels Lucif. [1]	mRNA levels Spi1 [1]	mRNA levels Trem2 [1]	mRNA levels Tyrobp [1]	IC50 [2]
CCOc1ccc(-c2nc(CSCC(=O)NCCc3ccccc3)c(C)o2)cc1	1.036 multiples of 1×	1.097 multiples of 1×	0.437 multiples of 1×	1.065 multiples of 1×	1.024 multiples of 1×	0.994 multiples of 1×	1200 nM
CN1CC=C(/C=C/c2ccc(-c3nc4ccccc4s3)o2)CC1	1.035 multiples of 1×	0.767 multiples of 1×	0.291 multiples of 1×	0.885 multiples of 1×	0.863 multiples of 1×	0.922 multiples of 1×	49 nM

— patent US20220340983A1, “SYSTEMS AND ASSAYS FOR IDENTIFYING PU.1 INHIBITORS” (Massachustts Institute of Technology, priority 2019, published 2022)
